Test system: Mus musculus
Experiment: Oral bioavailability in NMRI mouse at 10 mg/kg
Type: ADME, organism-based
Conditions: in vivo

With `Cc1nn(C)c(C)c1NS(=O)(=O)c1c(Cl)cc(-c2ccnc(N3CCNCC3)c2)cc1Cl` the F was 19%.

— ChEMBL document CHEMBL1949590, “Discovery of a novel class of orally active trypanocidal N-myristoyltransferase inhibitors” (J Med Chem, 2012)
